LGR2 antag = Drosophila LGR2 receptor signaling inhibition; HEK293 LGR2, CRE-luciferase, bursicon-stimulated, 4 h; AID 720647; hit rate 0.35% among 380,000; inhibition, % at 9.99 µM;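 active = drop in luminescence signal, shown as inhibition above about 50% in the replicate tests, limit read from the data, passing the limit was not always enough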;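 note: agonist challenge used bursicon conditioned medium at about half maximal strength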
UUG fidelity = modulators of start codon recognition fidelity in yeast. S. cerevisiae UUG-firefly luciferase reporter, luminescence/redox ratio. activity score, % at 18.7 µM. 0.13% of 350,000 active. AID 602363;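 active = replicate mean at a twofold rise or more, about +100% in these data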;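 also: firefly luciferase made from a UUG start codon reports start codon fidelity; reporter light over untreated wells divided by growth signal over untreated wells; some hits fall short of that in this replicate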
miR122 inh = miR-122 inhibition in Huh7 cells. Huh7 miR-122 Renilla luciferase sensor, 48 h; neutral wells = 0, positive control = 100. activation (reporter increase), % at 12.5 µM. hit rate 0.3% among 340,000;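 active = mean replicate activation score at least 90 and every replicate individually at or above 90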;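 note: higher luciferase means less miR-122 activity so hits act as miR-122 inhibitors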
F508del corr = CFTR F508del correction in bronchial cells; CFBE cells, YFP halide quenching; stimulated with forskolin plus potentiator P3; % fluorescence drop versus neutral controls; activity (quench increase), % at 7.58 µM; hit rate 0.36% among 350,000; AID 720511;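 active = mean added fluorescence quench of at least 8% versus neutral control, with both replicates also reaching 8%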;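 note: cells transiently co-express mutant CFTR-F508del with the halide-sensitive YFP; corrector assay measuring rescue of mutant channel to the surface after 24 h compound exposure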
EWS-Fli block = blocks EWS/Fli oncoprotein-driven transcription; hit rate 0.67% among 350,000; inhibition, % at 12.6 µM; A673 NR0B1-luciferase reporter, viability-normalised;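 active = mean inhibition of at least 50% after viability correction, with every replicate also passing that limit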;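 note: firefly luciferase signal divided by Alamar Blue viability fluorescence both relative to DMSO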
PglD DTNB = inhibitors of Campylobacter jejuni PglD acetyltransferase | inhibition, % at 12.5 µM | purified PglD enzyme, DTNB colorimetric CoA detection | hit rate 0.098% among 360,000; in the data active = inhibition above about 16%, passing the limit was not always enough
Active calls of the source: *; . = no result; [ ] = another dose, or the depositor's remark. Only some compounds are listed: those with a hit (about 1.3% of all), similar ones and a draw of the others.

#1 COc1ccc(NC(=O)C2Cc3c(-c4cccc(NC(C)=O)c4)ccnc3O2)cc1 (configuration not stated)
#2 CC(=O)c1cccc(-c2ccnc3c2CC(C(=O)NCCc2ccccc2)O3)c1 (configuration not stated)
#3 CC(=O)Nc1cccc(-c2ccnc3c2CC(C(=O)NCCc2ccccc2)O3)c1 (configuration not stated)
#4 CC(=O)Nc1ccc(NC(=O)C2Cc3c(-c4cccc(NC(C)=O)c4)ccnc3O2)cc1 (configuration not stated)
#5 CNC[C@H]1Oc2ccc(NC(=O)Cc3ccccc3)cc2CC(=O)N([C@H](C)CO)C[C@@H]1C
#6 O=C(COC(=O)CCc1ccc(S(=O)(=O)N2CCOCC2)cc1)Nc1ccccc1[N+](=O)[O-]
#7 COCCNC(=O)C[C@@H]1C=C[C@H](NC(=O)NC2CCCCC2)[C@H](CO)O1
#8 Cc1nc(N)sc1-c1csc(N(C)c2ccc(O)cc2)n1
Assay by compound	1	2	3	4	5	6	7	8
PglD DTNB	-8	-1	-1	-3	.	-2	0	6
LGR2 antag	-24	-1	-7	-9	-2	-16	10	6
UUG fidelity	-4	7	-14	-2	.	10	1	-20
F508del corr	4	5	3	2	1	.	1	1
miR122 inh	10	8	12	0	5[16.7 µM]	-8	5[16.7 µM]	2
EWS-Fli block	52*	54*	55*	-10	-1	11	3	-64

#9 CN(c1ccc(O)cc1)c1nc(-c2cccs2)cs1
#10 O=C1NC(=S)N/C1=C\c1cccnc1
#11 CO[C@@H]1CN(C)C(=O)c2cc(NC(=O)c3ccc4c(c3)OCO4)ccc2OC[C@@H](C)N(CCC(F)(F)F)C[C@H]1C
#12 CCCNC(=O)c1ccc2c(=O)c(O)c(-c3cccc(Br)c3)[nH]c2c1
#13 CCn1nnc2cc(C(=O)NCCc3ccccc3F)ccc21
#14 COC(=O)C1C(c2ccccc2)C(C(=O)N2CCOCC2)C1c1ccccc1 (configuration not stated)
#15 CCOc1ccc(NCC(=O)c2ccc(C)cc2)cc1
#16 Cc1ccc(C(=O)CNc2ccc(Cl)cc2)cc1
Assay by compound	9	10	11	12	13	14	15	16
PglD DTNB	.	8	2	4	1	7	.	0
LGR2 antag	-5	11	8	9	54*	.	-6	-113
UUG fidelity	.	-19	1	-6	-61	14	.	-10
F508del corr	13*	-1	-6	8.4*	1	.	1	12*
miR122 inh	.	-4	.	23	.	-4	.	68
EWS-Fli block	-75	-28	6	11	56*	.	-7	-11

#17 CCOc1cc(/C=N/N=C(N)N)ccc1OCc1ccc(Cl)cc1
#18 COc1cc(/C=N/N=C(N)N)ccc1OCc1ccc(Cl)cc1
#19 CCOc1ccccc1NC(=O)CNC(=O)N1CC(=O)Nc2ccccc21
#20 C[C@@H]1CN([C@H](C)CO)C(=O)c2cccc(NC(=O)Nc3ccc(F)cc3)c2O[C@H]1CN(C)Cc1ccc(-c2ccccc2)cc1
#21 O=C1c2cccc3c([N+](=O)[O-])ccc(c23)C(=O)N1O
#22 CC(=O)Oc1ccc(N2C(=O)c3cccc4c([N+](=O)[O-])ccc(c34)C2=O)cc1
#23 C(=Cc1cccnc1)c1ccncc1
#24 O=C(/C=C/c1ccc(Cl)cc1)c1cccnc1
Assay by compound	17	18	19	20	21	22	23	24
PglD DTNB	-1	-8	.	-4	-3	7	-1	.
LGR2 antag	53*	32	-2	32	-46	-2	11	.
UUG fidelity	-8	-31	-21	-13	2	-27	6	.
F508del corr	.	-1	-2	-2	1	32*	0	.
miR122 inh	-5	.	15	2[16.7 µM]	.	-9	5	-3
EWS-Fli block	-4	44	16	28	1	66*	-4	.

#25 N#Cc1ccc(/C=C/C(=O)c2cccnc2)cc1
#26 O=C(/C=C/c1cccnc1)/C=C/c1cccnc1
#27 Cc1cc(C(O)c2ncc(-c3ccccc3)[nH]2)ccc1F (configuration not stated)
#28 OC(c1ccc(Cl)c(F)c1)c1ncc(-c2cccc(F)c2)[nH]1 (configuration not stated)
#29 C=CCN=c1scc(C)n1/N=C/c1ccc(O)c(O)c1
#30 CCS(=O)(=O)N1CC(=O)N2[C@H](CO)[C@@H](c3ccc(C#CCC(C)C)cc3)[C@@H]2C1
#31 O=C(c1ccccc1F)N1CC[C@@H]2[C@H](CO)Nc3ccc(Br)cc3[C@@H]21
#32 O=S(=O)(c1ccccc1F)N1CC[C@@H]2[C@H]1c1cc(-c3cccc(F)c3)ccc1N[C@@H]2CO
Assay by compound	25	26	27	28	29	30	31	32
PglD DTNB	-5	4	1	10	.	.	-1	-2
LGR2 antag	81*	15	.	-21	-40	1	-2	97*
UUG fidelity	-8	-14	-22	-10	.	.	-1	-12
F508del corr	-3	-5	.	-2	11*	11*	12*	1
miR122 inh	.	-25	158*	124*	5	.	33[16.7 µM]	34[16.7 µM]
EWS-Fli block	-6	73*	.	15	-2	1	44	29

#33 O=C(Cc1ccccc1)N1CC[C@H]2[C@H](CO)Nc3ccc(-c4cccc(F)c4)cc3[C@H]21
#34 Cc1ccccc1S(=O)(=O)N1CC[C@@H]2[C@H](CO)Nc3ccc(-c4ccc(F)cc4)cc3[C@@H]21
#35 O=C(c1ccccc1F)N1CC[C@@H]2[C@H]1c1cc(Br)ccc1N[C@@H]2CO
#36 O=C(Cc1ccccc1)N1CC[C@@H]2[C@@H](CO)Nc3ccc(-c4cccc(F)c4)cc3[C@@H]21
#37 Cc1ccccc1S(=O)(=O)N1CC[C@@H]2[C@@H](CO)Nc3ccc(-c4ccc(F)cc4)cc3[C@@H]21
#38 CCN1C(=O)[C@H]2[C@@H](c3ccc(-c4ccccc4)cc3)N[C@@](C)(C(=O)OC)[C@H]2C1=O
#39 Cc1ccc(C(C)C)cc1S(=O)(=O)NCc1cccnc1
#40 C[C@H]1CCC/C=C/[C@@H]2C[C@H](O)C[C@H]2[C@H](O)[C@H](S(=O)c2ccc(O)cc2)CC(=O)O1 (some centres not stated)
Assay by compound	33	34	35	36	37	38	39	40
PglD DTNB	-5	1	-5	0	0	-2	6	.
LGR2 antag	-10	12	-10	9	4	9	.	.
UUG fidelity	-9	1	-5	-5	2	1	-21	.
F508del corr	0	1	6	6	5	-3	.	-31
miR122 inh	-6[16.7 µM]	1[16.7 µM]	37[16.7 µM]	109*[16.7 µM]	157*[16.7 µM]	-2	24	-6
EWS-Fli block	6	-1	45	15	21	-6	.	66*

#41 COc1ccc(NS(=O)(=O)c2cccc(NC(=O)COc3ccccc3[N+](=O)[O-])c2)cc1
#42 CCOc1ccc(S(=O)(=O)N2CCOCC2)cc1NC(=O)CSCC(=O)Nc1ccc(OC)cc1
#43 Cc1cccc(N=Nc2ccc(O)c3ncccc23)c1
#44 Cc1ccc(C)c(N=Nc2ccc(O)c3ncccc23)c1
#45 O=C(Nc1sc2c(c1C(=O)O)CCC2)c1cccs1
#46 O=C(Nc1ccc(F)cc1)N1CCCCN2[C@H](CO)[C@@H](c3ccc(C#Cc4ccccc4)cc3)[C@@H]2C1
#47 COc1ccc(C#Cc2ccc([C@H]3[C@@H](CO)N4CCCCN(C(=O)Nc5ccccc5)C[C@@H]34)cc2)cc1
Assay by compound	41	42	43	44	45	46	47
PglD DTNB	-5	3	.	.	.	6	2
LGR2 antag	9	-26	17	52*	.	1	14
UUG fidelity	-11	1	.	.	.	11	43
F508del corr	-1	20*	.	.	.	3	1
miR122 inh	146*	.	.	.	202*	-4[16.7 µM]	11[16.7 µM]
EWS-Fli block	0	-1	.	.	.	7	14

In the list so far, 4 have two or more sulfur atoms:
#8 Cc1nc(N)sc1-c1csc(N(C)c2ccc(O)cc2)n1
#9 CN(c1ccc(O)cc1)c1nc(-c2cccs2)cs1
#42 CCOc1ccc(S(=O)(=O)N2CCOCC2)cc1NC(=O)CSCC(=O)Nc1ccc(OC)cc1
#45 O=C(Nc1sc2c(c1C(=O)O)CCC2)c1cccs1
Assay by compound	8	9	42	45
PglD DTNB	6	.	3	.
LGR2 antag	6	-5	-26	.
UUG fidelity	-20	.	1	.
F508del corr	1	13*	20*	.
miR122 inh	2	.	.	202*
EWS-Fli block	-64	-75	-1	.
